This note sets out measurements from BindingDB's records for US9221831.

By UniProt entry, the sequences of proteins in these tests, tags left out.
UniProt P41143, whole entry: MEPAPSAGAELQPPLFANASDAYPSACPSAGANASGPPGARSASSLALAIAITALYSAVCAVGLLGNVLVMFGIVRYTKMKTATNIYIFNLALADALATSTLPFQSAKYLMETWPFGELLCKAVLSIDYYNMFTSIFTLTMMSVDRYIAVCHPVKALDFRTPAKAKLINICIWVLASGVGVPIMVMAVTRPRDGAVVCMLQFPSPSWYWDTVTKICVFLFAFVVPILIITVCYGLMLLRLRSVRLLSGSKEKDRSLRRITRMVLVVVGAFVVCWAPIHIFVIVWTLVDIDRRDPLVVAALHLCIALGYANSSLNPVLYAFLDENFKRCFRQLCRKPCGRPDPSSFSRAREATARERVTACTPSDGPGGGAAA
UniProt P41145, whole entry: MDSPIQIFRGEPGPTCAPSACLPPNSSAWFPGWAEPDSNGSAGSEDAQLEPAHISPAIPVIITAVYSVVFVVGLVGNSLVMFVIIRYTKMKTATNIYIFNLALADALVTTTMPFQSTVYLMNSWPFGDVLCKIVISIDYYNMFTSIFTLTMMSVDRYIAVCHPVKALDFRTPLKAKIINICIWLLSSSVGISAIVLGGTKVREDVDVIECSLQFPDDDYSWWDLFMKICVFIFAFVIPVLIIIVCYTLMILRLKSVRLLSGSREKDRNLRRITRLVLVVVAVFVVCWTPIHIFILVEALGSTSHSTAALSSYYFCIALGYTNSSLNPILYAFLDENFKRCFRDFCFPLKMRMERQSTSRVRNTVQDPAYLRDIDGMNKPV
UniProt P35372, whole entry: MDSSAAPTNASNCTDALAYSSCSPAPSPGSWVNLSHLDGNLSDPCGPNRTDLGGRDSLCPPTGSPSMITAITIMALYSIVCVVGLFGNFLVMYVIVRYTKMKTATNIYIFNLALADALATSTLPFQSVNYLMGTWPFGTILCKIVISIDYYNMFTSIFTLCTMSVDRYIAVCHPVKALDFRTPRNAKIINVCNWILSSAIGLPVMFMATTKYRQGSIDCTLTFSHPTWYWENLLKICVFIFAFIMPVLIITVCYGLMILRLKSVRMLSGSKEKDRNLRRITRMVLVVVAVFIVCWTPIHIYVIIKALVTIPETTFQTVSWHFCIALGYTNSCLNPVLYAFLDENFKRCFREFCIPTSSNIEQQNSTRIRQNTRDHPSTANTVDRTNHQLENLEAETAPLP
UniProt P41146, whole entry: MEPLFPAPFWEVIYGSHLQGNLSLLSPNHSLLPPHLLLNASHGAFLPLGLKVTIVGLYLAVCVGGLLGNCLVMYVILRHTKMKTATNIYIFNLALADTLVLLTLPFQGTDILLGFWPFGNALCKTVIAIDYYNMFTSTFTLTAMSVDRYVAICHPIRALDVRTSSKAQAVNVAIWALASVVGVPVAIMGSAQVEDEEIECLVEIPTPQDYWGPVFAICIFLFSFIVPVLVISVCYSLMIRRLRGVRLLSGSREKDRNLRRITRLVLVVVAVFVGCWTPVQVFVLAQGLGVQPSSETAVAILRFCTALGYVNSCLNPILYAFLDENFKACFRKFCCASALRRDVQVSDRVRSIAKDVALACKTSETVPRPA

Molecules are shown by their SMILES.

Assay [1] deals with T1, Delta-type opioid receptor (Homo sapiens, UniProt P41143). Kind of assay: ASSAY_NAME: Functional Assay DESCRIPTION: Functional [35S]GTPgammaS binding assays were conducted as follows. Delta opioid receptor membrane solution was prepared by sequentially adding final concentrations of 0.026 ug/ul delta membrane protein (Perkin Elmer, Shelton, Conn.), 10 ug/mL saponin, 3 uM GDP and 0.20 nM [35S]GTPgammaS to binding buffer (100 mM NaCl, 10 mM MgCl2, 20 mM HEPES, pH 7.4) on.

Assay [2] addresses T2, Kappa-type opioid receptor (Homo sapiens, UniProt P41145). Kind of assay: ASSAY_NAME: Radioligand Dose-Displacement Binding Assay DESCRIPTION: Radioligand dose displacement assays used 0.4 nM [3H]-U69,593 (GE Healthcare, Piscataway, N.J.; 40 Ci/mmole) with 15 μg membrane protein (recombinant κ opioid receptor expressed in HEK 293 cells; in-house prep) in a final volume of 200 μl binding buffer (5% DMSO, 50 mM Trizma base, pH 7.4). Non-specific binding was.

The next assay deals with Mu-type opioid receptor (Homo sapiens, UniProt P35372). In words: ASSAY_NAME: Radioligand Dose-Displacement Binding Assay DESCRIPTION: Radioligand dose-displacement binding assays for t-opioid receptors used 0.3 nM [3H]-diprenorphine (Perkin Elmer, Shelton, Conn.), with 5 mg membrane protein/well in a final volume of 500 ul binding buffer (10 mM MgCl2, 1 mM EDTA, 5% DMSO, 50 mM HEPES, pH 7.4). Reactions were carried out in the absence or presence of increasing c.

Assay [3] addresses T2, Kappa-type opioid receptor. In words: ASSAY_NAME: Functional Assay DESCRIPTION: Functional [35S]GTPgammaS binding assays were conducted as follows. kippa opioid receptor membrane solution was prepared by sequentially adding final concentrations of 0.026 ug/ul kippa membrane protein (in-house), 10 ug/mL saponin, 3 uM GDP and 0.20 nM [35S]GTPgammaS to binding buffer (100 mM NaCl, 10 mM MgCl2, 20 mM HEPES, pH 7.4) on ice. The prepared me.

The next assay addresses Nociceptin receptor (Homo sapiens, UniProt P41146). In words: ASSAY_NAME: Radioligand Dose-Displacement Binding Assay DESCRIPTION: Radioligand binding assays (screening and dose-displacement) used 0.1 nM [3H]-nociceptin (Perkin Elmer, Shelton, Conn.; 87.7 Ci/mmole) with 12 ug membrane protein in a final volume of 500 ul binding buffer (10 mM MgCl2, 1 mM EDTA, 5% DMSO, 50 mM HEPES, pH 7.4). Non-specific binding was determined in the presence of 10 nM unlabele.

Assay [4] concerns the target T1, Delta-type opioid receptor. Kind of assay: ASSAY_NAME: Radioligand Dose-Displacement Binding Assay DESCRIPTION: Delta-opioid Receptor Binding Assay Procedures were conducted as follows. Radioligand dose-displacement assays used 0.3 nM [3H]-Naltrindole (Perkin Elmer, Shelton, Conn.; 33.0 Ci/mmole) with 5 ug membrane protein (Perkin Elmer, Shelton, Conn.) in a final volume of 500 ul binding buffer (5 mM MgCl2, 5% DMSO, 50 mM Trizma base, pH. The settings on record: pH 7.4.

For `CO[C@]12CC[C@@]3(C[C@@H]1COCc1ccccc1)[C@H]1Cc4ccc(N)c5c4[C@@]3(CCN1C)[C@H]2O5`, the EC50 in assay [1] came out at 273 nM.

Consider `COc1ccc2c3c1O[C@H]1[C@@]4(OC)CC[C@@]5(C[C@@H]4COCc4cccc(NC(N)=O)c4)[C@@H](C2)N(CC2CC2)CC[C@]315`, for which the Ki in assay [2] was found to be 1.37 nM.

Regarding `CC[C@H](C)[C@H](N)C(=O)OC[C@H]1C[C@@]23CC[C@]1(OC)[C@@H]1Oc4c(OC)ccc5c4[C@@]12CCN(CC1CC1)[C@@H]3C5`, in assay [2], the Ki came to 0.73 nM.

For `CO[C@]12CC[C@@]3(C[C@@H]1COCc1ccccc1)[C@H]1Cc4ccc(OCC(N)=O)c5c4[C@@]3(CCN1CC1CC1)[C@H]2O5`, the figures for the Ki (in assay [2]; on Mu-type opioid receptor) were 0.29 nM and 8.69 nM, respectively. The half-maximal effective concentration (EC50) in assay [3] worked out at 2.44 nM.

As to `COc1ccc2c3c1O[C@H]1[C@@]4(O)CC[C@@]5(C[C@@H]4COCc4ccccc4)[C@@H](C2)N(CC2CC2)CC[C@]315`, the Ki on Mu-type opioid receptor stood at 3.32 nM.

As to `CO[C@]12CC[C@@]3(C[C@@H]1COCc1ccccc1)[C@H]1Cc4ccc(C(N)=O)c5c4[C@@]3(CCN1C)[C@H]2O5`, the Ki in assay [2] was determined as 0.15 nM.

As to `CO[C@]12CC[C@@]3(C[C@@H]1COCc1ccccc1)[C@H]1Cc4ccc(F)c5c4[C@@]3(CCN1C)[C@H]2O5`, the Ki was determined as 0.19 nM in assay [2] and 286 nM at Nociceptin receptor.

As for `CO[C@]12CC[C@@]3(C[C@@H]1COCc1cccc(NC(=O)c4ccccc4)c1)[C@H]1Cc4ccc(O)c5c4[C@@]3(CCN1CC1CC1)[C@H]2O5`, the inhibition constant (Ki) was 0.15 nM in assay [2] and 1.17 nM at Mu-type opioid receptor. For the same compound, the EC50 in assay [3] worked out at 0.54 nM.

For `CC[C@H](C)[C@H](N)C(=O)OC[C@H]1C[C@@]23CC[C@]1(OC)[C@@H]1Oc4c(O)ccc5c4[C@@]12CCN(CC1CC1)[C@@H]3C5`, the figures for the inhibition constant (Ki) (in assay [2]; at Mu-type opioid receptor) were 0.06 nM and 0.15 nM, respectively. In assay [3], the EC50 was 0.96 nM.

On to `C=Cc1ccc2c3c1O[C@H]1[C@@]4(OC)CC[C@@]5(C[C@@H]4COCc4ccccc4)[C@@H](C2)N(C)CC[C@]315`, for which the concentration giving a half-maximal response (EC50) in assay [3] came to 6.82 nM.

Take `CO[C@]12CC[C@@]3(C[C@@H]1COc1ccc(-n4ccnc4)cc1)[C@H]1Cc4ccc(O)c5c4[C@@]3(CCN1CC1CC1)[C@H]2O5`: the Ki on Mu-type opioid receptor worked out at 0.93 nM; in assay [4], 2.38 nM.

As to `CCCc1cc(COC[C@H]2C[C@@]34CC[C@]2(OC)[C@@H]2Oc5c(OC)ccc6c5[C@@]23CCN(C)[C@@H]4C6)on1`, the Ki in assay [2] turned out to be 16.2 nM. Besides, the EC50 in assay [3] turned out to be 645 nM.

In the case of `CO[C@]12CC[C@@]3(C[C@@H]1COCc1ccccc1)[C@H]1Cc4ccc(OCc5nn[nH]n5)c5c4[C@@]3(CCN1CC1CC1)[C@H]2O5`, the Ki was 32.7 nM in assay [2] and 20.4 nM at Mu-type opioid receptor.

As for `COc1ccc2c3c1O[C@H]1[C@@]4(OC)CC[C@@]5(C[C@@H]4CN(Cc4ccccc4)C(C)=O)[C@@H](C2)N(CC2CC2)CC[C@]315`, the inhibition constant (Ki) in assay [2] was 0.14 nM. In addition, in assay [3], the EC50 stood at 8.13 nM.

With `COc1ccc2c3c1O[C@H]1[C@@]4(OC)CC[C@@]5(C[C@@H]4CSc4nncs4)[C@@H](C2)N(C)CC[C@]315`, the 50% effective concentration (EC50) in assay [3] was 10300 nM.

On to `CO[C@]12CC[C@@]3(C[C@@H]1COC(=O)[C@@H](N)Cc1ccccc1)[C@H]1Cc4ccc(O)c5c4[C@@]3(CCN1CC1CC1)[C@H]2O5`, for which the values for the Ki (at Mu-type opioid receptor; in assay [4]) were 0.19 nM and 1.23 nM, respectively. The 50% effective concentration (EC50) was 2.04 nM in assay [3] and 0.82 nM in assay [1].

In the case of `COc1ccc2c3c1O[C@H]1[C@@]4(OC)CC[C@@]5(C[C@@H]4COc4ccc(-n6ccnc6)cc4)[C@@H](C2)N(CC2CC2)CC[C@]315`, in assay [3], the EC50 amounted to 5460 nM.

As for `COc1ccc2c3c1O[C@H]1[C@@]4(OC)CC[C@@]5(C[C@@H]4COC(=O)[C@@H](N)Cc4ccccc4)[C@@H](C2)N(CC2CC2)CC[C@]315`, the Ki amounted to 4.39 nM in assay [2], 14.3 nM on Mu-type opioid receptor and 138 nM in assay [4].

Regarding `CCOC(=O)CC[C@H]1[C@H](COCc2ccccc2)[C@]2(OC)CC[C@]13[C@H]1Cc4ccc(OC)c5c4[C@@]3(CCN1CC1CC1)[C@H]2O5`, the Ki in assay [2] amounted to 8.33 nM.

As to `COc1ccc2c3c1O[C@H]1[C@@]4(OC)CC[C@@]5(C[C@@H]4CNCc4ccccc4)[C@@H](C2)N(CC2CC2)CC[C@]315`, on Mu-type opioid receptor, the Ki came to 9.01 nM.

As to `CCOC(=O)CC[C@H]1[C@H](COCc2ccccc2)[C@@]23CC[C@]1(OC)[C@@H]1Oc4c(OC)ccc5c4[C@@]12CCN(CC1CC1)[C@@H]3C5`, the inhibition constant (Ki) in assay [2] was 2.55 nM. The concentration for a half-maximal effect (EC50) in assay [3] worked out at 129 nM.

As for `COC(=O)COc1ccc(COC[C@H]2C[C@@]34CC[C@]2(OC)[C@@H]2Oc5c(OC)ccc6c5[C@@]23CCN(CC2CC2)[C@@H]4C6)cc1`, the EC50 was found to be 95.1 nM in assay [3] and 778 nM in assay [1]. The same compound had a Ki in assay [4] of 739 nM.

Consider `COCCOCCOCCOCCOCCOc1ccc2c3c1O[C@H]1[C@@]4(OC)CC[C@@]5(C[C@@H]4COCc4ccccc4)[C@@H](C2)N(CC2CC2)CC[C@]315`, for which the Ki on Mu-type opioid receptor came out at 26.9 nM. Moreover, the concentration for a half-maximal effect (EC50) was 42.2 nM in assay [3] and 87.5 nM in assay [1].

`COc1ccc2c3c1O[C@H]1[C@@]4(OC)CC[C@@]5(C[C@@H]4CN(Cc4ccccc4)S(C)(=O)=O)[C@@H](C2)N(CC2CC2)CC[C@]315`: the Ki in assay [2] was 0.43 nM.

As for `COCCOCCOCCOCCOCCO[C@]12CC[C@@]3(C[C@@H]1COCc1ccccc1)[C@H]1Cc4ccc(OC)c5c4[C@@]3(CCN1CC1CC1)[C@H]2O5`, at Mu-type opioid receptor, the Ki stood at 15 nM.

For `CO[C@]12CC[C@@]3(C[C@@H]1COCc1cc4ccccc4s1)[C@H]1Cc4ccc(OCCO)c5c4[C@@]3(CCN1CC1CC1)[C@H]2O5`, the Ki in assay [2] was 2.51 nM; in assay [4], 278 nM.

For `CO[C@]12CC[C@@]3(C[C@@H]1COCc1ccccc1)[C@H]1Cc4ccc(O)c5c4[C@@]3(CCN1)[C@H]2O5`, the EC50 came to 0.84 nM in assay [3] and 17.3 nM in assay [1]. The compound further displayed a Ki in assay [4] of 13.8 nM.

With `COc1ccc2c3c1O[C@H]1[C@@]4(OC)CC[C@@]5(C[C@@H]4COC(=O)[C@@H](N)CC(C)C)[C@@H](C2)N(CC2CC2)CC[C@]315`, the inhibitory constant (Ki) came out at 1.16 nM in assay [2] and 7.65 nM on Mu-type opioid receptor. Moreover, in assay [1], the EC50 worked out at 129 nM.

As to `COCCOCCOCCOc1ccc2c3c1O[C@H]1[C@@]4(OC)CC[C@@]5(C[C@@H]4COCc4ccccc4)[C@@H](C2)N(CC2CC2)CC[C@]315`, the Ki in assay [2] amounted to 2.55 nM; on Mu-type opioid receptor, 6.72 nM. Moreover, the concentration giving a half-maximal response (EC50) in assay [3] amounted to 11.4 nM.

Regarding `CO[C@]12CC[C@@]3(C[C@@H]1COCc1ccccc1)[C@H]1Cc4ccc(NS(C)(=O)=O)c5c4[C@@]3(CCN1C)[C@H]2O5`, the Ki came to 0.53 nM in assay [2] and 1550 nM at Nociceptin receptor.

On to `CO[C@]12CC[C@@]3(C[C@@H]1COc1ccc(-n4ccnc4)cc1)[C@H]1Cc4ccc(O)c5c4[C@@]3(CCN1C)[C@H]2O5`, for which the figures for the Ki in assay [2] and in assay [4] were 4.18 nM and 43 nM, respectively. Further, the concentration for a half-maximal effect (EC50) in assay [3] came out at 129 nM; in assay [1], 75.3 nM.

`CO[C@]12CC[C@@]3(C[C@@H]1COC(=O)[C@H](C)N)[C@H]1Cc4ccc(O)c5c4[C@@]3(CCN1CC1CC1)[C@H]2O5`: the inhibition constant Ki in assay [2] is 0.14 nM; on Mu-type opioid receptor, 1.4 nM. The EC50 in assay [3] was 2.59 nM.

Turning to `COc1ccc2c3c1O[C@H]1[C@@]4(OC)CC[C@@]5(C[C@@H]4CS(=O)(=O)Cc4ccccc4)[C@@H](C2)N(CC2CC2)CC[C@]315`, in assay [2], the Ki is 1.39 nM.

On to `COc1ccc2c3c1O[C@H]1[C@@]4(c5ccccc5)CC[C@@]5(C[C@@H]4COCc4ccccc4)[C@@H](C2)N(CC2CC2)CC[C@]315`, for which the Ki in assay [2] was found to be 1.07 nM.

With `COc1ccc2c3c1O[C@H]1[C@@]4(OC)CC[C@@]5(C[C@@H]4C[S+]([O-])Cc4ccccc4)[C@@H](C2)N(CC2CC2)CC[C@]315` (stereo partly drawn), the Ki was found to be 0.43 nM in assay [2], 14 nM at Mu-type opioid receptor and 6020 nM at Nociceptin receptor. Moreover, the EC50 in assay [3] is 9.08 nM.

As for `COc1ccc2c3c1O[C@H]1[C@@]4(OC)CC[C@@]5(C[C@@H]4COCc4ccccc4)[C@@H](C2)NCC[C@]315`, the EC50 in assay [3] amounted to 22.5 nM.
